The series can be described thus: Serum kinetics and absolute bioavailability of ^14 C-labelled CDP-choline and "ASONIC" after i.v. and oral administration in Cynomolgus monkeys. Format: in vivo, Cynomolgus monkey. The protocol:
From the end of the curves serum concentration/time, it was possible to calculate the constant of the apparent elimination speed from the organism as well as the relative half-life. These values were utilized in calculating the AUC T30 hours →T.infin. for the total of the curves concentration/time in the same animal. The AUC To →T30 hrs was calculated by means of the trapezium methods. […] For each dosage, a randomized cross-over procedure was used. Seriated blood samples were collected until 30 hours after each administration. From the single curves concentration/time it was possible to calculate the AUC To →T30 hrs. After each administration, including the intravenous one, urine was collected at the following time intervals: 0-24 hours, 24-48 hours and 48-72 hours.

Experimental findings from US4386077A (Made Italiana s.r.l, priority 1981, dated 1983) are described below.

Take `C[N+](C)(C)CCOP(=O)(O)OP(=O)([O-])OC[C@H]1O[C@@H](n2ccc(N)nc2=O)[C@H](O)[C@@H]1O` [CDP-choline, cytidine diphosphocholine]: the Serum concentration reads like this: (monkey no. 1, 200 mg/kg per os, 4 hr) 172 DPM/ml; (monkey no. 1, 200 mg/kg per os, 30 hr) 385 DPM/ml; (monkey no. 2, 200 mg/kg per os, 4 hr) 135 DPM/ml.
